Consider one molecule from ChEMBL document CHEMBL1944524, “Synthesis and structure-activity relationship of 5-pyridazin-3-one phenoxypiperidines as potent, selective histamine H(3) receptor inverse agonists” (Bioorg Med Chem Lett, 2012).

Amino acid sequences for entries named in this document (tags omitted). A change or cut given only in a name is not applied to a line headed by its entry.
UniProt Q9Y5N1: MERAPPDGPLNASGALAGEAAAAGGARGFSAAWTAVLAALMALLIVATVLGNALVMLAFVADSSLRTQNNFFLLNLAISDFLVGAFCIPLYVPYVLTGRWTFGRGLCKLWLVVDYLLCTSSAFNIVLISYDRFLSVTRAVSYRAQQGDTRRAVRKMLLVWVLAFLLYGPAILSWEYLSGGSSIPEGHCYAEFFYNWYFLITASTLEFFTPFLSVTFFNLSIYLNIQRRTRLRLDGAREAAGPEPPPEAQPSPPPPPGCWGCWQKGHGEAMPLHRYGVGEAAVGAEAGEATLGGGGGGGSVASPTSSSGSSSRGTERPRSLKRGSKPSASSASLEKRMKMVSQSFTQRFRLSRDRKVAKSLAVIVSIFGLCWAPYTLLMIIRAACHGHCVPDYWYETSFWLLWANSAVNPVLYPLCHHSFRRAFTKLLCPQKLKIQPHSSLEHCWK
UniProt Q9QYN8: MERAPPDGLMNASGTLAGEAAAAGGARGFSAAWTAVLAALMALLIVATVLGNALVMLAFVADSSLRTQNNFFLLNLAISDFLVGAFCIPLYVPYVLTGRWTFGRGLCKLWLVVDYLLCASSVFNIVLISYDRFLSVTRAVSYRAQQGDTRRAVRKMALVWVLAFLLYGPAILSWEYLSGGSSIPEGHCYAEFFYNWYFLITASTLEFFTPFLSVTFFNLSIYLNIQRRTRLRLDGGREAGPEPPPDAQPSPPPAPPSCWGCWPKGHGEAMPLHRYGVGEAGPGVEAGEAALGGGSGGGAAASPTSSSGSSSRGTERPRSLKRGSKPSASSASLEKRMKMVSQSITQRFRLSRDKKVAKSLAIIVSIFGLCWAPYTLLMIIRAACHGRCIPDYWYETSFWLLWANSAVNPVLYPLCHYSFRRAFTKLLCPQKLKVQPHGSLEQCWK

The target in experiment [1] is Histamine H3 receptor (Homo sapiens, UniProt Q9Y5N1). Nature of the experiment: Binding affinity to human histamine H3 receptor.
The target of experiment [2] is Histamine H3 receptor (Rattus norvegicus, UniProt Q9QYN8). Nature of the experiment: Binding affinity to rat histamine H3 receptor.

Regarding `C[C@@H]1CCCN1CCCOc1ccc(-c2cnn(-c3ccccn3)c(=O)c2)cc1`, the Ki in experiment [1] was 1.7 nM; in experiment [2], 3.7 nM.
